Source: patent US20040038828A1 (priority 2002, published 2004)

Assays:
Annual Bluegrass = assay: Field study Watsonville, weed biomass; settings: Watsonville plots; rate 400 lbs acres^−1
[1] = test system: Strawberries (Fragaria X ananassa Duchesne); assay: Field study Salinas, strawberry fruit yield and dead plants
[2] = test system: Strawberries (Fragaria X ananassa Duchesne); assay: Field study Watsonville, strawberry fruit yield and dead plants
Little mallow = assay: Field study Salinas, weed biomass; settings: Salinas plots; rate 400 lbs acres^−1
[3] = drip applied, 400 pound per acre, preplant

2-bromoethanol
weed biomass, Annual Bluegrass (Annual Bluegrass): 5.9 gram/m^2 | percentage of dead plants (MB:CP versus 2-bromoethanol) ([1]; P<0.05): not significantly different | fruit yield relative to MB:CP fumigation [1, 3]: 115% | fruit yield relative to MB:CP fumigation [2, 3]: > 95% | percentage of dead strawberry plants (compared with untreated control) ([2]; soil infested with Verticillium dahliea): greater in the untreated control | weed biomass, Little mallow (Little mallow): 4.2 gram/m^2
